We go through two compounds from patent US20260265195A1, “SARM1 MODULATORS, PREPARATIONS, AND USES THEREOF” (SIRONAX LTD, priority 2022, published 2026).

Protein sequences, listed by entry. Tags and fused reporters are not part of them. Residues count along the entry.
UniProt Q6SZW1, 50-724 limits assumed: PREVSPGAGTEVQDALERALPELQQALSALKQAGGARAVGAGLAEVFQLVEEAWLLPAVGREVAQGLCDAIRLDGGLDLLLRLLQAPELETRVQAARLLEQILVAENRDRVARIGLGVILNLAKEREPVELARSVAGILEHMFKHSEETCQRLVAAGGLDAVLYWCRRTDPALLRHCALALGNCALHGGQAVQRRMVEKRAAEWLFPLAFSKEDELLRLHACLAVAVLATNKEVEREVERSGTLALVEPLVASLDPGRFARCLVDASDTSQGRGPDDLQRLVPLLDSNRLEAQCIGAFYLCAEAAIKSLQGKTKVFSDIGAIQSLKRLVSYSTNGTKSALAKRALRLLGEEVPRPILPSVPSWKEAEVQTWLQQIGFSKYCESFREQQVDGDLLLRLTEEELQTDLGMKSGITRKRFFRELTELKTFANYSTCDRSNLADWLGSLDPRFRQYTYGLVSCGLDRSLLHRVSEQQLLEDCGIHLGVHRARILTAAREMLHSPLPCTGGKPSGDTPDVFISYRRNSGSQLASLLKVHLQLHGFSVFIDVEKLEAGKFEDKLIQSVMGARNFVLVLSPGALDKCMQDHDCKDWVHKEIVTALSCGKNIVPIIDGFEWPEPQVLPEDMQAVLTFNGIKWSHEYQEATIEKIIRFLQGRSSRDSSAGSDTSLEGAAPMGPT

This assay deals with SARM1 (50-724) (Homo sapiens, UniProt Q6SZW1). The assay can be described thus: SARM1 (50-724) enzymatic assay (NMN-activated NAD+ hydrolysis, LC-MS/MS readout). Particulars: read-out: IC50 (SARM1 inhibitory activity), purified SARM1 (50-724) 2 nM, 200 μM NMN activator, 100 μM NAD+ substrate, 1 h at room temperature.

Turning to `Cc1ccc2[nH]c(C(=O)N(C)C3CCCC3)c(CC#N)c2c1`, the IC50 – broadly, the concentration that inhibits the measured activity by half – lay within 501 to 1000 nM. Then `CCCc1c(C(=O)N(C)C2CCCC2)[nH]c2ccc(C)cc12`, with 501 to 1000 nM.
